This is a selection; strong and weak results do not stand in their true shares.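 Activity criterion: percent growth below 10, measured after cells in 96-well plates were exposed to a single compound concentration for 48 hours.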 Active and inactive are the calls of the source.
Assays:
Assay in all cases: NCI-60 one-dose screen, 48 h (100 = growth as untreated, 0 = no growth, -100 = all killed)
Details in all cases: 10 µM unless noted
[1] = test system: NCI-H23 lung
[2] = test system: NCI-H226 lung
[3] = test system: NCI-H322M lung
[4] = test system: HOP-62 NSCLC
[5] = test system: NCI-H460 lung
[6] = test system: HOP-92 NSCLC
[7] = test system: NCI-H522 lung
[8] = test system: A549/ATCC NSCLC
[9] = test system: 786-0 renal
[10] = test system: COLO 205 colon
[11] = test system: DU-145 prostate
[12] = test system: K-562 leukemia
[13] = test system: MALME-3M melanoma
[14] = test system: MDA-MB-231 breast
[15] = test system: RXF 393 renal
[16] = test system: SF-268 CNS
[17] = test system: SF-539 CNS
[18] = test system: UACC-257 melanoma
[19] = test system: M14 melanoma
[20] = test system: SF-295 CNS

Compound	growth [1]	growth [2]	growth [3]	growth [4]	growth [5]	growth [6]	growth [7]	growth [8]	growth [9]	growth [10]	growth [11]	growth [12]	growth [13]	growth [14]	growth [15]	growth [16]	growth [17]	growth [18]	growth [19]	growth [20]
CC(=O)NC(C)C(=O)N(CC(C)Cl)CC(C)Cl (centres undefined)	inactive: 105%	inactive: 93.5%	inactive: 102%	inactive: 108%	inactive: 107%	inactive: 99.9%	inactive: 84.6%	inactive: 90.5%	inactive: 97.8%	inactive: 107%	inactive: 107%	inactive: 99.5%	inactive: 101%	inactive: 103%	inactive: 101%	inactive: 103%	inactive: 92.4%	inactive: 88.3%	inactive: 102%	–
CCOC(=O)NC(C)(CCC(C)(NC(=O)OCC)P(=O)(O)Nc1ncccn1)P(=O)(O)Nc1ncccn1 (centres undefined)	inactive: 101% [100 µM]	inactive: 96.4% [100 µM]	inactive: 98% [100 µM]	inactive: 96.8% [100 µM]	inactive: 110% [100 µM]	inactive: 96.7% [100 µM]	inactive: 105% [100 µM]	–	inactive: 102% [100 µM]	inactive: 109% [100 µM]	inactive: 112% [100 µM]	inactive: 99.5% [100 µM]	inactive: 102% [100 µM]	inactive: 99.7% [100 µM]	inactive: 102% [100 µM]	inactive: 102% [100 µM]	inactive: 100% [100 µM]	inactive: 103% [100 µM]	inactive: 100% [100 µM]	inactive: 101% [100 µM]
COc1ccc([As](=O)(O)O)cc1	inactive: 113%	inactive: 96.6%	inactive: 115%	inactive: 113%	inactive: 116%	inactive: 103%	–	inactive: 102%	inactive: 102%	inactive: 116%	inactive: 118%	inactive: 106%	inactive: 112%	inactive: 113%	inactive: 101%	inactive: 109%	inactive: 95.7%	inactive: 98.8%	inactive: 102%	–
O=C(O)/C=C\c1cccc(N(CCCl)CCCl)c1	inactive: 110%	inactive: 103%	inactive: 110%	inactive: 107%	inactive: 97.2%	inactive: 78.4%	–	inactive: 97.5%	inactive: 109%	inactive: 122%	inactive: 117%	inactive: 106%	inactive: 113%	inactive: 100%	inactive: 112%	inactive: 108%	inactive: 106%	inactive: 108%	inactive: 106%	inactive: 93.8%
O=[As](O)(c1ccccc1Br)c1ccccc1Br	inactive: 108%	inactive: 101%	inactive: 124%	inactive: 96.5%	inactive: 111%	inactive: 86.6%	–	inactive: 104%	inactive: 111%	inactive: 97.6%	inactive: 99.3%	inactive: 109%	inactive: 130%	inactive: 91%	inactive: 112%	inactive: 91.5%	inactive: 92.6%	inactive: 105%	inactive: 97.9%	inactive: 109%
CCOC(=O)c1sc2ncnc(NCCCl)c2c1C	inactive: 98.9%	inactive: 103%	inactive: 100%	inactive: 88.7%	inactive: 100%	inactive: 71.9%	inactive: 109%	inactive: 91.1%	inactive: 106%	inactive: 101%	inactive: 104%	inactive: 101%	inactive: 114%	inactive: 90.3%	inactive: 103%	inactive: 97.7%	inactive: 94.9%	inactive: 116%	inactive: 115%	–
O=C(O)CCc1ccc(N(CCCl)CCCl)cc1	inactive: 96.4%	inactive: 97.4%	inactive: 103%	inactive: 96.5%	inactive: 88.7%	inactive: 90%	inactive: 84.8%	inactive: 97.3%	inactive: 107%	inactive: 106%	inactive: 103%	inactive: 105%	inactive: 101%	inactive: 112%	inactive: 109%	–	inactive: 87.2%	inactive: 103%	inactive: 103%	inactive: 101%
CCCCOP(OCCCC)OCCCC	inactive: 103%	inactive: 102%	inactive: 118%	inactive: 104%	inactive: 111%	inactive: 130%	inactive: 88.1%	inactive: 115%	inactive: 101%	inactive: 120%	inactive: 119%	inactive: 107%	–	inactive: 119%	inactive: 105%	inactive: 116%	inactive: 102%	inactive: 109%	inactive: 99.8%	–
O=P1(N(CCCl)CCCl)OCCC2CCCCN21 (centres undefined)	inactive: 110%	inactive: 106%	inactive: 94.8%	inactive: 103%	inactive: 110%	inactive: 92.9%	inactive: 98.4%	inactive: 102%	inactive: 102%	inactive: 107%	inactive: 115%	inactive: 98%	–	inactive: 107%	inactive: 114%	inactive: 103%	inactive: 103%	inactive: 103%	inactive: 97.7%	inactive: 110%
CCN(CC)C(=O)Oc1ccc(/C=N/NC(N)=S)nc1	inactive: 90.9%	inactive: 86.6%	inactive: 59.1%	inactive: 75.8%	inactive: 70.4%	inactive: 96.4%	inactive: 83%	inactive: 67.1%	inactive: 88.1%	inactive: 103%	inactive: 76.5%	inactive: 95.5%	inactive: 106%	inactive: 67.8%	–	inactive: 68.5%	inactive: 87%	inactive: 79.1%	inactive: 84%	–
NP(=O)(N(CCCl)CCCl)N1CC1 (centres undefined)	inactive: 96.3%	inactive: 105%	inactive: 99.2%	inactive: 105%	inactive: 110%	inactive: 86.8%	inactive: 76.4%	inactive: 98.1%	inactive: 95.4%	inactive: 107%	inactive: 79.4%	inactive: 93%	inactive: 100%	inactive: 114%	inactive: 108%	inactive: 93.8%	inactive: 100%	inactive: 104%	inactive: 97.3%	–
[N-]=[N+]=NS(=O)(=O)c1ccc([N+](=O)[O-])cc1	inactive: 103%	inactive: 95.9%	inactive: 106%	inactive: 121%	inactive: 108%	inactive: 75.7%	inactive: 96.4%	inactive: 96.7%	inactive: 98.8%	inactive: 131%	inactive: 103%	inactive: 98.1%	–	inactive: 101%	inactive: 103%	inactive: 98.4%	inactive: 102%	inactive: 104%	inactive: 107%	inactive: 97.2%
O=C(c1ccc([N+](=O)[O-])cc1)N(CCCl)CCCl	inactive: 117%	inactive: 100%	inactive: 98.6%	inactive: 105%	inactive: 112%	inactive: 103%	inactive: 97%	inactive: 93.5%	inactive: 106%	inactive: 111%	inactive: 108%	inactive: 111%	inactive: 114%	inactive: 104%	–	inactive: 106%	inactive: 108%	inactive: 72.7%	inactive: 115%	inactive: 95.6%
ClCCNCc1ccccc1	inactive: 102%	inactive: 93.8%	inactive: 99.4%	inactive: 111%	inactive: 102%	inactive: 84.3%	inactive: 110%	inactive: 109%	–	inactive: 115%	inactive: 108%	inactive: 97.2%	inactive: 106%	inactive: 118%	inactive: 119%	inactive: 101%	inactive: 107%	inactive: 111%	inactive: 104%	inactive: 113%
Cc1ccc(S(=O)(=O)CN(CCCl)CCCl)cc1	inactive: 104%	inactive: 107%	inactive: 96.1%	inactive: 98.9%	inactive: 107%	inactive: 107%	inactive: 108%	inactive: 96%	inactive: 107%	inactive: 106%	inactive: 110%	inactive: 104%	inactive: 106%	inactive: 116%	–	inactive: 102%	inactive: 103%	inactive: 110%	inactive: 108%	inactive: 94.4%
O=C(Nc1cc([As](=O)(O)O)ccc1O)c1ccccc1	inactive: 102%	inactive: 90.6%	inactive: 132%	inactive: 98.3%	inactive: 101%	inactive: 96.3%	active: -25.3%	inactive: 109%	inactive: 98.5%	inactive: 113%	inactive: 113%	inactive: 82.3%	inactive: 106%	inactive: 83.5%	–	inactive: 99.7%	inactive: 93.9%	inactive: 87.9%	inactive: 102%	inactive: 113%
NCCc1ccc(N(CCCl)CCCl)cc1	inactive: 65.1%	inactive: 80.4%	inactive: 109%	inactive: 66.2%	inactive: 23.3%	inactive: 87.2%	inactive: 36.6%	inactive: 53.7%	inactive: 32.8%	inactive: 70.7%	inactive: 48.3%	inactive: 59%	inactive: 91.6%	inactive: 103%	–	inactive: 49%	inactive: 35%	inactive: 65.1%	inactive: 60.8%	–

Reference: PubChem BioAssay (NCI)
